Reference: patent publication US20050221478A1, “Control of es cell self renewal and lineage specification, and medium therefor” (University of Edinburgh, priority 2002, published 2005)

Test system: ES cells
Experiment: Self-renewal of pluripotent cells with agonists of a receptor of the TGF-β superfamily or FGF receptor inhibitor
Assay type: cell-based

B1: BMP2: bone morphogenetic protein, known homologue of BMP4 (protein, UniProt P12643 283-396, looked up)
Bone morphogenetic protein 2: QAKHKQRKRLKSSCKRHPLYVDFSDVGWNDWIVAPPGYHAFYCHGECPFPLADHLNSTNHAIVQTLVNSVNSKIPKACCVPTELSAISMLYLDENEKVVLKNYQDMVVEGCGCR
- result as agonist of a receptor of the TGF-β superfamily for self-renewal: Good results
